Test: Toxicity by intraperitoneal injection to mice
Conditions: mice (16-18 g)

For CC(C)C[C@H](NC(=O)[C@H](CS)NC(=O)[C@@H](NC(=O)[C@H](CC(C)C)NC(=O)[C@@H](N)CO)[C@@H](C)O)C(=O)N[C@H](C(=O)N[C@@H](CCCCN)C(=O)NCC(=O)N[C@@H](Cc1ccccc1)C(=O)N[C@@H](Cc1ccc(O)cc1)C(=O)O)C(C)C [immunorphin], the LD50 was 2500 mg/kg.
